## Binding of CDR-mutated scFvs to a peptide of the spike HR2 region

The measurements come from Engelhart et al. 2022 (doi:10.1038/s41597-022-01779-4) through the FLAb antibody collection.

Target: peptide PDVDLGDISGINAS, taken from heptad repeat 2 (HR2) of SARS-CoV-2 spike.

Parent scFv Ab-95: VH joined to VL by the linker GGGGSGGGGSGGGGS. Changes lie in the light chain CDRs alone.
VH: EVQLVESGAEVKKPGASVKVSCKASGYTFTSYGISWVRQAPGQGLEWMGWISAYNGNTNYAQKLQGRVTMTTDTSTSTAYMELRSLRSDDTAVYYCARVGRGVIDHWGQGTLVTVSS
VL: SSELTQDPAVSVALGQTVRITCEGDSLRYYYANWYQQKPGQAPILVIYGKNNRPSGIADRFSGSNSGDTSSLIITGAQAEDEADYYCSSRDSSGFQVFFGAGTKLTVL

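The parent was found by panning a naive human phage display library on the peptide. In library AAYL52, one, two or three CDR residues were substituted; doubles and triples were drawn at random. Affinity was read by AlphaSeq, a pooled yeast mating assay with surface-displayed partners. Pairs that bind mate more often; barcode pairs of the diploids are counted by sequencing. Read counts were normalised to the haploid input and turned into Kd by a linear fit to BCL2-family pairs of known affinity, for each replicate. There are three technical replicates.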

Variants are written as CDR1, CDR2 and CDR3 of the light chain (limits as in the source). Parent: EGDSLRYYYAN, GKNNRPS, SSRDSSGFQVF. Scale: log10 of Kd in nM, estimated from mating counts; low values are strong binders. A mean of the replicates is given; it leaves out those without a signal. An entry "ND" has no value in the source: the pair was not observed among the diploids in that replicate. This suggests poor binding but is not conclusive.

EGDSLAFYYAN, GKNNRPS, PSRDSSGFQVF: 3.37, 3.80, 2.22 (mean 3.13; controls 5 of 9).
EGDSLRYYYCY, GKNNRPS, SSRDSSGFQVQ: ND, 4.87, 2.91 (mean 3.89; controls 5 of 9).
EQDSLRYYYAN, GKNNRPS, SSRDSSSFQVD: 3.83, ND, ND (controls 1 of 9).
EGSSLRYYYAW, GINNRPS, SSRDSSGFQVF: 3.02, ND, ND (controls 0 of 9).
TGDSLRYYYAN, GKNNRPS, SSRDSYGKQVF: 2.63, 2.34, 3.05 (mean 2.67; controls 1 of 9).
EQDSLHRYYAN, GKNNRPS, SSRDSSGFQVF: 3.39, 3.48, 4.03 (mean 3.63; controls 5 of 9).
EGDSLRYVYAN, GKNNRPS, HCRDSSGFQVF: 2.60, 2.14, 2.24 (mean 2.33; controls 4 of 9).
EGFSLRYYYAN, GKNQRPS, SSRDSSGFQEF: 3.83, 4.17, ND (mean 4.00; controls 1 of 9).
EGFSLRYYYAN, GKNNFPS, SSRSSSGFQVF: 5.03, ND, ND (controls 1 of 9).
EGDSLRYYYAN, CKNNRPS, PSNDSSGFQVF: 4.52, ND, ND (controls 1 of 9).
EGDSLRYYYAN, GKNNRPS, SSADSSGFQVQ: 4.14, 3.54, 3.35 (mean 3.68; controls 4 of 9).
EGDSLRYYYAN, GKNNRPS, SSRDSCYFQVC: 2.97, 2.47, 2.81 (mean 2.75; controls 4 of 9).
EGDSLRYYEAN, GKANRPS, SSRDGSGFQVF: 2.66, 2.72, 1.90 (mean 2.42; controls 4 of 9).
EGDSLRYYYAV, GKNNRPS, SSRDSTGFQVF: 2.73, 2.55, 3.48 (mean 2.92; controls 5 of 9).
QGDSLRYYYAN, GKNNRPS, SERDSSGSQVF: 1.81, 1.67, 1.20 (mean 1.56; controls 0 of 9).
EVQSLRYYYAN, GKNNRPS, SSRYSSGFQVF: 4.72, ND, 3.81 (mean 4.27; controls 2 of 9).
EDYALRYYYAN, GKNNRPS, SSRDSSGFQVF: 1.84, 2.38, 1.44 (mean 1.89; controls 5 of 9).
EGDSLRYYYAN, GLNNRPG, SSYDSSGFQVF: 3.34, 3.29, 2.80 (mean 3.14; controls 3 of 9).
EGDSLRYYYAN, GKNNAPS, SSRESSGFQVL: 3.42, 4.78, 4.28 (mean 4.16; controls 2 of 9).
EGDSLRYYVAN, GKNNRPS, SSRDSSGFFCF: 3.00, 2.50, 3.57 (mean 3.02; controls 4 of 9).
EDDSLRYVYAN, GKNNRPS, SSRDSSGPQVF: ND, 4.24, ND (controls 2 of 9).
EGDSLRYLYAN, GKNNRPS, SSRFSSGFFVF: ND, ND, ND (controls 2 of 9).
EGDSLRYHYAN, GVNNRPS, SSRPSSGFQVF: 1.92, 1.86, 1.44 (mean 1.74; controls 4 of 9).
EGDRLRYYYAN, GKNNRPS, SSRYSSGFQVP: 3.72, 3.74, ND (mean 3.73; controls 2 of 9).
EGDSLRMYYAN, GKNNRPS, SSEDSSGIQVF: 3.68, 3.09, 2.83 (mean 3.20; controls 0 of 9).
EGDSLRYYYAE, GKNNRPS, SSRDSQGFVVF: 4.27, ND, 3.35 (mean 3.81; controls 0 of 9).
EGDSLNYYYAN, GKNNLPS, SSRDSAGFQVF: 2.99, 2.74, 3.13 (mean 2.95; controls 0 of 9).
EGDSTRYYYAN, QKNNRPS, SSRDSSIFQVF: 4.08, ND, ND (controls 1 of 9).
EGDSLRYYYAN, GKNEQPS, SSRVSSGFQVF: 5.69, ND, ND (controls 3 of 9).
EGDSLRYNYAN, GKNNRPS, SSWDSSGFQVL: 2.39, 2.53, 3.02 (mean 2.65; controls 3 of 9).
EGDSLRYYEAN, GKNNRPS, SSNDSSGWQVF: 3.04, 2.19, 2.62 (mean 2.62; controls 3 of 9).
EGDSLRYYYAN, GKNNRPS, SSRDSSQTQVK: 2.01, 2.20, 1.83 (mean 2.01; controls 1 of 9).
EGDSLMYYYAN, GKNWRPS, SSRDSSGFQVF: 4.18, 2.84, 3.18 (mean 3.40; controls 0 of 9).
EGDSVRYYYAN, GKNARPK, SSRDSSGFQVF: ND, 3.17, ND (controls 3 of 9).
EGDSLRYYYAN, GKNNRPS, SSRKSSGKQVF: 3.52, 4.99, ND (mean 4.26; controls 3 of 9).
EGDSLRYYNAN, GKGNSPS, SSRDSSGFQVF: 1.94, 2.13, 1.56 (mean 1.87; controls 5 of 9).
EGDSLRYYYAN, GKNNNPG, SSRDSSGTQVF: 2.38, ND, ND (controls 0 of 9).
EGDSLRYYYAV, GKNNRPS, QSRDSSGFQPF: 3.45, ND, ND (controls 1 of 9).
EGDSLRYYYAN, GTNPRPN, SSRDSSGFQVF: 3.57, 4.52, 4.54 (mean 4.21; controls 3 of 9).
EGDSLRYYYAN, GKNNRPS, SSRDMSGFQIF: 2.54, 2.15, ND (mean 2.35; controls 1 of 9).
EGDSLRYYYKN, GKNNRPS, SSRDSSGWEVF: 3.94, 5.63, 4.19 (mean 4.59; controls 3 of 9).
EGDFLRYYYAN, GKNNRPS, PSRDSSGIQVF: ND, 4.75, ND (controls 1 of 9).
EGDSFRYYYAN, GKNNRPS, SSRDMSYFQVF: 2.23, 2.33, 1.51 (mean 2.02; controls 0 of 9).
EGDSLRLYYGN, GKNNRPS, SSRDMSGFQVF: 3.00, 2.51, 3.02 (mean 2.84; controls 2 of 9).
EGDSLRYIYAN, GKNNRPS, SFRRSSGFQVF: 2.56, 3.23, ND (mean 2.89; controls 1 of 9).
EGDSLRYYYAN, GKNNRPS, FSEDGSGFQVF: ND, ND, 4.06 (controls 2 of 9).
EGDLLRYYYAN, NKNRRPS, SSRDSSGFQVF: ND, ND, ND (controls 1 of 9).
EGDSKRYYYAN, GKMNRPR, SSRDSSGFQVF: ND, ND, 3.07 (controls 2 of 9).
EKDSLRYFYHN, GKNNRPS, SSRDSSGFQVF: 3.17, ND, ND (controls 0 of 9).
EGYSGRYYYAN, GKNNRPS, SSRDSSGFQVN: 1.83, 1.64, 1.81 (mean 1.76; controls 0 of 9).
WGDSLRYYIAN, GKNNRPS, SSRDASGFQVF: ND, ND, 3.23 (controls 3 of 9).

The first 3 entries again:

Variant EGDSLAFYYAN, GKNNRPS, PSRDSSGFQVF gave 3.37, 3.80, 2.22 (mean 3.13; controls 5 of 9).
Variant EGDSLRYYYCY, GKNNRPS, SSRDSSGFQVQ gave ND, 4.87, 2.91 (mean 3.89; controls 5 of 9).
Variant EQDSLRYYYAN, GKNNRPS, SSRDSSSFQVD gave 3.83, ND, ND (controls 1 of 9).

Empty control strains, which show no peptide, gave a signal in 28% of pairings with library AAYL52; the median was 3.91 and 95% of these signals were weaker than 2.90. No background was subtracted. The control count says in how many pairings with the empty strains this scFv gave a signal. For reference, the parent read 2.31 as the reference entry and 2.25 as a member of this library.